From patent US20140255406A1 come the findings set out here.

As a reminder, the Kd is a measure of binding affinity in units of concentration.

One assay deals with Human IL-17A/F (human) (UniProt Q16552). Put plainly: SPR, Biacore T200, 37 °C, antibody captured on protein A, IL-17 in solution, 1:1 model. Background: In SPR one partner is held on a chip, and binding of the other changes the refractive index at the surface.
In assay [1] the target is human IL-17 (human) (UniProt Q16552). Put plainly: cell-based or functional assay.
The target in a further assay is Human IL-17A (human) (UniProt Q16552). Put plainly: SPR, Biacore T200, 37 °C, antibody captured on protein A, IL-17 in solution, 1:1 model.
The target in assay [2] is human IL-17 (human) (UniProt Q16552). Put plainly: SPR, Biacore T200, 25 °C, antibody captured on protein A and saturated with TNFα, then 80 nM human IL-17 injected for 2 minutes.

“bispecific antibody of the present invention (anti-TNFα / anti-IL-17; two first polypeptides of SEQ ID NO: 1 and two second polypeptides of SEQ ID NO: 2)”: in the assay with Human IL-17A/F (human), the Kd was 0.0423 nM. Further, in the assay with human IL-17 (human) [1], the Average % inhibition of human IL-17-induced CXCL1 production in vivo (mouse plasma) stood at 81.9% and the IC50, inhibition of IL-17-induced secretion of CXCL1 by HT-29 cells is 0.628 nM.
With “bispecific antibody of the present invention (anti-TNFα / anti-IL-17; two first polypeptides of SEQ ID NO: 1 and two second polypeptides of SEQ ID NO: 2) (bispecific antibody; other documents disagree on this pair)”, in the assay with Human IL-17A (human), the dissociation constant (Kd) amounted to 0.0089 nM. Besides, the additional binding signal (RU) with human IL-17 (human) [2] was determined as 37 RU.
